{
  "source": "PubChem BioAssay (Tox21)",
  "note": "The list shows a part of the results, in another mix than the full data. Results filed as inconclusive are left out. The source holds several records for some structures; these can differ, active in one and inactive in another. Activity calls are given as the source filed them. The call rests on the fitted dose curve; in most records, active means well fitted cell-killing curve with a large enough effect in the repeat runs; inconclusive means weak or mixed curves, or effect the other way; inactive means flat fitted curve, though single readings scatter. On the % scale 0 is the no-effect control and ±100 the full control effect; potency means the concentration at half of the fitted maximal effect.",
  "data": [
    {"assay": "cAMP Responsive Elements (CRE) small molecule agonists, cell-based qHTS assay: qHTS cell viability counter screen (AID 2060914); further: nearly all actives have a fitted effect of over 50% in size", "details": "CRE-bla HEK293T viability, CellTiter-Glo luminescence, 5 h; series mostly up to 92.4 µM; activity change, negative = cytotoxicity: at the top concentration", "in_short": "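Cells are seeded and incubated 18 h, treated with compounds in DMSO for 3 h, read for the bla reporter, then given CellTiter-Glo; luminescence is measured after 30 min at room temperature.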", "values": [
      {"smiles": "O=[N+]([O-])c1ccc(S(=O)(=O)O)c([N+](=O)[O-])c1", "Potency": "active: 0.869 µM"},
      {"smiles": "NC(=O)Nc1ccc([As](=O)(O)O)cc1", "Potency": "inactive"},
      {"smiles": "O=C(Cl)Oc1ccccc1", "activity change, negative = cytotoxicity": "inactive: -14%"},
      {"smiles": "Cc1cc([N+](=O)[O-])cc([N+](=O)[O-])c1O", "activity change, negative = cytotoxicity": "inactive: 2.75%"},
      {"smiles": "COP(=S)(Cl)OC", "activity change, negative = cytotoxicity": "inactive: -0.762%"},
      {"smiles": "CN(C(=O)Cc1cccc2occc12)[C@H]1CC[C@@]2(CCCO2)C[C@@H]1N1CCCC1", "activity change, negative = cytotoxicity": "inactive: 2.5%"},
      {"smiles": "CCNC(C)Cc1ccc2c(c1)OCO2", "note": "(stereo not drawn)", "activity change, negative = cytotoxicity": "inactive: -13.9%"},
      {"smiles": "CCCCO[P+](=O)OCCCC", "Potency": "inactive"},
      {"smiles": "Cc1cc([N+](=O)[O-])c(O)c([N+](=O)[O-])c1", "activity change, negative = cytotoxicity": "inactive: -3.51%"},
      {"smiles": "O=[N+]([O-])c1ccc([N+](=O)[O-])cc1", "activity change, negative = cytotoxicity": "inactive: -20.4%"},
      {"smiles": "CCC(C)(OOC(C)(C)C)OOC(C)(C)C", "activity change, negative = cytotoxicity": "inactive: 10% [at 18.9 µM]"},
      {"smiles": "COC(=O)Cl", "activity change, negative = cytotoxicity": "inactive: 2.3%"},
      {"smiles": "O=P(Cl)(Oc1ccccc1)Oc1ccccc1", "activity change, negative = cytotoxicity": "inactive: 18%"},
      {"smiles": "CN(N=O)C(=N)N[N+](=O)[O-]", "activity change, negative = cytotoxicity": "inactive: 10.8%"},
      {"smiles": "O=[p+]1oc2ccccc2c2ccccc21", "note": "(stereo not drawn)", "activity change, negative = cytotoxicity": "inactive: 0.954%"},
      {"smiles": "CN(C(=O)Cc1ccccc1)[C@H]1CC[C@@]2(CCCO2)C[C@@H]1N1CCCC1", "activity change, negative = cytotoxicity": "inactive: -0.276% [at 42.5 µM]"},
      {"smiles": "O=P(Cl)(Cl)c1ccccc1", "activity change, negative = cytotoxicity": "inactive: -5.49%"},
      {"smiles": "CCCCCCCCCCCCCC[P+](CCCCCC)(CCCCCC)CCCCCC", "Potency": "active: 54.3 µM"},
      {"smiles": "CC(C)CCCCCCCOP(OCCCCCCCC(C)C)Oc1ccccc1", "activity change, negative = cytotoxicity": "inactive: 11.3%"},
      {"smiles": "CCCCOP(OCCCC)OCCCC", "activity change, negative = cytotoxicity": "inactive: 6.49%"},
      {"smiles": "O=[P+](Oc1ccccc1)Oc1ccccc1", "activity change, negative = cytotoxicity": "inactive: 21.4%"},
      {"smiles": "CN(C(=O)Cc1ccc(Cl)c(Cl)c1)[C@H]1CC[C@@]2(CCCO2)C[C@@H]1N1CCCC1", "activity change, negative = cytotoxicity": "inactive: -0.778% [at 42.5 µM]"},
      {"smiles": "O=C(Cl)OCCOC(=O)Cl", "activity change, negative = cytotoxicity": "inactive: 4.02%"}
    ]}
  ]
}
